The results in this text go back to EP4810040A2, “INHIBITORS OF APOL1 AND METHODS OF USING SAME” (priority 2020, dated 2022).

Protein sequences, listed by entry. Tags and fused reporters are not part of them. Residues count along the entry.
UniProt O14791, 28-398 S342G/I384M limits assumed: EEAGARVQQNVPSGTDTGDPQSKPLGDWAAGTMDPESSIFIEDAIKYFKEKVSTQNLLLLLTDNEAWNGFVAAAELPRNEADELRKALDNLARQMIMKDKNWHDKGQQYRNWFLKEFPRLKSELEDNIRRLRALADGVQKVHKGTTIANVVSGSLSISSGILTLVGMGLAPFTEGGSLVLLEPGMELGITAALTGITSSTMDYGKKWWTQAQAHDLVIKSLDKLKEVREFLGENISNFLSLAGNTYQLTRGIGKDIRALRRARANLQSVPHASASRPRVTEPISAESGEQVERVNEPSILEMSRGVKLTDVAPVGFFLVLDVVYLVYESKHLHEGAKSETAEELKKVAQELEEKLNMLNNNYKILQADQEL

Each structure is given as a SMILES string.

For the assay, the target named is APOL1 G1 (Homo sapiens, UniProt O14791, I384M/S342G). As to the kind of experiment: MultiTox-Fluor Multiplex Cytotoxicity Assay, tet-inducible APOL1 G1 T-REx-HEK293 cells. The class given is cell-based.

Consider `C[C@@H](CO)CCn1cc([C@@H]2C[C@]3(C[C@H](C)N2)OCC(F)(F)c2cc(Cl)sc23)nn1`, for which, where the note is “read-out: Multi-Tox Assay IC90, APOL1 variant (G0/G1/G2) of the HEK293 cells not given, tested form: parent or trifluoroacetate salt (not spe)”, the IC90 was < 50 nM. In addition, under “read-out: Multi-Tox Assay IP50, IP50 = IC50 for cell proliferation, APOL1 variant not given, tested form: parent or trifluoroacetate salt (not spe)”, the IC50 is < 50 nM.
